Results published in ChEMBL document CHEMBL1155284, “Synthesis and antibacterial activity of some new thiadiaza/triazaphospholes, thiadiaza/triaza/tetrazaphosphinines and thiadiaza/tetrazaphosphepines containing 1,2,4-triazinone moiety” (Eur J Med Chem, 2009).

Tested on: Artemia salina
Assay: Toxicity against Artemia salina larvae after 24 hrs
Type: organism-based
Conditions: in vivo
Method in brief: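 Brine shrimp lethality test. Artemia salina eggs were hatched 48 h at 37 °C in filtered sea salt solution (38 g/L) with constant oxygen to give nauplii. Stock was 10 mg compound in 2 mL DMSO, diluted to 80, 40, 20, 10 and 5 µg/mL in triplicate vials, about 10 nauplii each, with a DMSO control. LC50 is the mean of three values.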

## CCOP1(=O)C(C)NN=C2N(N)C(=O)C(C)=NN21 (stereo unspecified)
  LC50: 25.9 µg/mL (≈ 94.6 µM)

Converted amounts (≈) assume the structure as drawn.
